This note sets out measurements from patent US20170291890A1 (Epizyme, Inc., priority 2014, published 2017).

Chains of the proteins cited; added tags and fusions are not shown. Residues count along the entry.
UniProt Q9H3R0, 2-372 limits assumed: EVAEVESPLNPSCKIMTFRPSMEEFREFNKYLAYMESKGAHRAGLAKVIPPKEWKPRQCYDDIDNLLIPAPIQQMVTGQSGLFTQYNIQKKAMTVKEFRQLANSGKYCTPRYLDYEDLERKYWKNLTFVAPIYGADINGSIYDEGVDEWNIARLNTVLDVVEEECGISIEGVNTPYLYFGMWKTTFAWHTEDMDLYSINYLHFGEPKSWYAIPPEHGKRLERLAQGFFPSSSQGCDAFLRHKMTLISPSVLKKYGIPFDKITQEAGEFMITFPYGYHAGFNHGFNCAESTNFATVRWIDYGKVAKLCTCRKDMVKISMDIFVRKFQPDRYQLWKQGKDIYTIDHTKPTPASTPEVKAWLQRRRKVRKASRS
UniProt P29375, 1-1090 limits assumed: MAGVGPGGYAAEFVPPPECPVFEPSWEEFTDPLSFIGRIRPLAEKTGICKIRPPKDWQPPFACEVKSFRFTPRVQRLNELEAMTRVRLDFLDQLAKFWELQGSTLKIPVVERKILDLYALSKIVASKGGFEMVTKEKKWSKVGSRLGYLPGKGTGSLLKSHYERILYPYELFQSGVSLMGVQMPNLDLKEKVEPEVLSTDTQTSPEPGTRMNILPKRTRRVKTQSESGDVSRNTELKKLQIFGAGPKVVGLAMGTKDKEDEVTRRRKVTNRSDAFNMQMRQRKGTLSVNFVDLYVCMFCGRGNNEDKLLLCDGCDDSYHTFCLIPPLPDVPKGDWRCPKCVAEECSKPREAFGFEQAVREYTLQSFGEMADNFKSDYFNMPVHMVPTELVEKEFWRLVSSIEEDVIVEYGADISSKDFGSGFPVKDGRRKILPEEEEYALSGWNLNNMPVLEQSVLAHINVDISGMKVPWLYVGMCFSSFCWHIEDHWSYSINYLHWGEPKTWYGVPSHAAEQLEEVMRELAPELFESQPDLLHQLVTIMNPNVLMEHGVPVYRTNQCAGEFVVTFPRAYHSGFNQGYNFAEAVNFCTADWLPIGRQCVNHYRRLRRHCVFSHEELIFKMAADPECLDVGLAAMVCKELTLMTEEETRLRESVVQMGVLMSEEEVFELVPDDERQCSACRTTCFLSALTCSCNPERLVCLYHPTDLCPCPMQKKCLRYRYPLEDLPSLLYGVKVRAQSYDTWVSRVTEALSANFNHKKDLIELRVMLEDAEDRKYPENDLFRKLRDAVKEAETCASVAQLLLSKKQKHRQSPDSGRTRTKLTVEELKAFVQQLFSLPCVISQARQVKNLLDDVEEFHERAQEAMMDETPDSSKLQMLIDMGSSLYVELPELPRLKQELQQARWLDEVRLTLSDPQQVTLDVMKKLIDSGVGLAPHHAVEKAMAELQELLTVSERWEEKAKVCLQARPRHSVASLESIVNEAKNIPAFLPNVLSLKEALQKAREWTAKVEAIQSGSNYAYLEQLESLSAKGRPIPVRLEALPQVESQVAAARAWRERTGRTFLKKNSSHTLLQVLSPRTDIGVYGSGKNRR
UniProt O75164, 1-350 limits assumed: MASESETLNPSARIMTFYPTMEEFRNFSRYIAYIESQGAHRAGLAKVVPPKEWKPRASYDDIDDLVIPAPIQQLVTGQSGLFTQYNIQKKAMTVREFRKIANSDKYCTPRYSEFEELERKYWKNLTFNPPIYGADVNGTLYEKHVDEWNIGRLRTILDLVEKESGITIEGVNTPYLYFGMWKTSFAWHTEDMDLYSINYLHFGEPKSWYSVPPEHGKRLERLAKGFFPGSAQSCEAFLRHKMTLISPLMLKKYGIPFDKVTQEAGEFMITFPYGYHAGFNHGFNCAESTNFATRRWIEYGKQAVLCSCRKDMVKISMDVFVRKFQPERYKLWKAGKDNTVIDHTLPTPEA

Molecules are shown by their SMILES. Read-outs that look alike come from different tables or passages of the source. Some results are limits rather than exact numbers.

One experiment concerns the target KDM4C (Homo sapiens, UniProt Q9H3R0). In words: KDM4C Assay (SAMDI mass spectrometry demethylase assay). As to conditions: read-out: 4C IC50, N-terminal GST-tagged KDM4C 2-372. On the procedure:
(§1) N-terminal GST-tagged KDM4C^2-372 was purchased from BPS Biosciences. Peptides were synthesized by BioPeptide and all other reagents were purchased from Sigma-Aldrich at the highest level of purity possible. Assays were performed in a 50 μL volume in 384-well V-bottom polypropylene microplates (Greiner) at 25° C. Optimized 1× assay buffer was 50 mM HEPES (pH=8.0), 100 μM sodium ascorbate, 20 mM NaCl, 10 μM ammonium iron sulfate, 1 mM tris(2-carboxyethyl)phosphine (TCEP), 0.002% Tween-20, and 0.005% BSG. For compound screening, 35 μL of KDM4C^2-372 (final concentration, f.c.=5 nM) was added using a Multidrop Combi and preincubated with 1 μL of test compound (f.c.=10 μM) for 30 minutes and subsequently 15 μL of peptide with the following sequence NH2-ARTKQTAR(Kme3)STGGKAPRKQLA(K-Ahx-Biotin)-amide (f.c.=500 nM) and 2-oxoglutarate (f.c.=15 μM) was added by Multidrop Combi to begin the reaction. Reactions proceeded for 150 minutes and were stopped by the addition of 5 μL of formic acid (f.c.=0.5%) using a Multidrop Combi and then analyzed by SAMDI Tech Inc.
(§2) SAMDI Tech analyzed all reactions using self-assembled monoloayer desorption/ionization technology as previously described (Gerard-Levin Z A, Scholle M D, Eisenberg A H, et al.: High-throughput screening of small molecule libraries using SAMDI mass spectrometry. ACS Comb Sci 2011; 13:347-350). Briefly, a 2 μL sample of the stopped demethylase reactions were transferred to a SAMDI array coated with 384 biotin-neutravidin spots using a 384-channel pipet station. The SAMDI arrays were incubated for 1 h in a humidified chamber, followed by washing of the surface with deionized ultra-filtered water (DIUF) and drying under nitrogen. A matrix of 30 mg/ml 2′,4′,6′-Trihydroxyacetophenone monohydrate (THAP) in acetone was applied using a TPP Mosquito 1.2 μL tip by dispensing 50 nL on each of the 384 spots on the array. SAMDI-MS was run using acquisition method ReflectorPositiveUTX. The % conversion of substrate to product was calculated using the AUC of the substrate and product peptide peaks.
(§3) An IC50 value was determined by contacting various concentrations of a test compound with one of the KDM4A, KDM4C or KDMSC enzyme constructs and plotting a dose-response curve which associates the amount of inhibition of the enzyme relative to the concentration of the test compound. From the curve, the IC50 value (which represents the concentration of the test compound necessary to inhibit maximal enzymatic activity by 50%) was determined. Additionally, the slope of the linear range of the plotted curve, which indicates the speed with which the curve rises between the minimum and maximum, was calculated.

A further experiment has as its target KDM5A (Homo sapiens, UniProt P29375). In words: KDM5A Assay (SAMDI mass spectrometry demethylase assay). As to conditions: read-out: 5A IC50, C-terminal FLAG-tagged KDM5A 1-1090. As for the experimental part: as §1, with “C-terminal FLAG-tagged KDM5A^1-1090” for “N-terminal GST-tagged KDM4C^2-372”, “[…]” for “KDM4C^2-372”, “f.c.=20” for “f.c.=5”, “NH2-ART[Kme-3]QTARKSTGGKA[K-Ahx-Biot]-amide (f.c.=250” for “NH2-ARTKQTAR(Kme3)STGGKAPRKQLA(K-Ahx-Biotin)-amide (f.c.=500”
as §2, §3

The target in another experiment is KDM4A (Homo sapiens, UniProt O75164). The experiment in a line: KDM4A Assay (SAMDI mass spectrometry demethylase assay). Conditions: read-out: 4A IC50; N-terminal His-tagged KDM4A 1-350; class symbols. As for the experimental part: N-terminal His-tagged KDM4A^1-350 was purchased from BPS Biosciences. Peptides were synthesized by BioPeptide and all other reagents were purchased from Sigma-Aldrich at the highest level of purity possible. Assays were performed in a 50 μL volume in 384-well V-bottom polypropylene microplates (Greiner) at 25° C. Optimized 1× assay buffer was 50 mM HEPES (pH=8.0), 100 μM sodium ascorbate, 20 mM NaCl, 10 μM ammonium iron sulfate, 1 mM tris(2-carboxyethyl)phosphine (TCEP), 0.002% Tween-20, and 0.005% BSG. […] Reactions proceeded for 120 minutes and were stopped by the addition of 5 μL of formic acid (f.c.=0.5%) using a Multidrop Combi and then analyzed by SAMDI Tech Inc.
SAMDI Tech analyzed all reactions using self-assembled monoloayer desorption/ionization technology as previously described (Gerard-Levin Z A, Scholle M D, Eisenberg A H, et al.: High-throughput screening of small molecule libraries using SAMDI mass spectrometry. ACS Comb Sci 2011; 13:347-350). […] The % conversion of substrate to product was calculated using the AUC of the substrate and product peptide peaks.
An IC50 value was determined by contacting various concentrations of a test compound with one of the KDM4A, KDM4C or KDMSC enzyme constructs and plotting a dose-response curve which associates the amount of inhibition of the enzyme relative to the concentration of the test compound. […]

A word on the IC50: it is the point on the concentration scale where inhibition reaches its midpoint.

With `C[C@@H]1CNC[C@H]1n1ncc(-c2ccccc2)c1Nc1cnccc1C(=O)O` (relative stereo), the half-maximal inhibitory concentration (IC50) at KDM4C (class symbols) and on KDM5A (class symbols) was 10 to 100 µM throughout.

`CNCCN1CCCC(n2ncc(-c3ccccc3)c2Nc2cnccc2C(=O)O)C1` (stereo not drawn): the IC50 at KDM4C (class symbols) and on KDM5A (class symbols) was 10 to 100 µM throughout.

In the case of `O=C(O)c1ccncc1Nc1c(-c2ccccc2)cnn1C1CCCNC1` (stereo not drawn), the IC50 on KDM4C (numeric bound) and on KDM5A (numeric bound) was over 100 µM each time.

On to `C[C@@H]1CN(C)C[C@H]1n1ncc(-c2ccccc2)c1Nc1cnccc1C(=O)O` (relative stereo), for which the IC50 was 10 to 100 µM at KDM4C (class symbols) and over 100 µM on KDM5A (numeric bound).

In the case of `N[C@H]1CC[C@@H](n2ncc(-c3ccccc3)c2Nc2cnccc2C(=O)O)CC1` (relative stereo), the IC50 on KDM4C (numeric bound) was over 100 µM; at KDM5A (class symbols) it was 1 to 10 µM.

On to `CN(C)CCN1CCCC(n2ncc(-c3ccccc3)c2Nc2cnccc2C(=O)O)C1` (stereo not drawn), for which the values for the 50% inhibitory concentration (IC50) at KDM4C (class symbols) and on KDM5A (class symbols) were 10 to 100 µM and 1 to 10 µM, respectively.

On to `Cc1nn(C2CCOCC2)cc1Nc1cnccc1C(=O)O`, for which the IC50 lay within 0.1 to 1 µM on KDM4C (class symbols), 1 to 10 µM on KDM5A (class symbols) and 0.001 to 0.1 µM on KDM4A.

Turning to `CCN1CCCC(n2ncc(-c3ccccc3)c2Nc2cnccc2C(=O)O)C1` (stereo not drawn), the half-inhibitory concentration (IC50) on KDM4C (class symbols) and at KDM5A (class symbols) was 10 to 100 µM each time.

`Cc1cnn(C2CCNCC2)c1Nc1cnccc1C(=O)O`: the half-maximal inhibitory concentration (IC50) at KDM4C (class symbols) and at KDM5A (class symbols) was 10 to 100 µM throughout.

As for `CN(C)[C@H]1CC[C@@H](n2ncc(-c3ccccc3)c2Nc2cnccc2C(=O)O)CC1` (relative stereo), the IC50 at KDM4C (class symbols) and on KDM5A (class symbols) was 10 to 100 µM throughout.
